Molecular target: Sodium- and chloride-dependent GABA transporter 1 (Mus musculus, UniProt P31648)
Assay: Inhibition of [3H]GABA uptake at mouse GAT1 expressed in HEK293 cells after 25 mins by scintillation counting analysis
Format: cell-based

O=C(O)C1CCCNC1 (stereo unspecified) [NIPECOTIC ACID] showed an IC50 of 8 µM.

Reference: ChEMBL document CHEMBL2311493, “Focused pseudostatic hydrazone libraries screened by mass spectrometry binding assay: optimizing affinities toward γ-aminobutyric acid transporter 1” (J Med Chem, 2013)
